Assay results taken from patent publication US7470550B2, “Method of evaluating cell activity” (Toyo Advanced Technologies Co., Ltd., priority 2001, dated 2008).

System: CTLL-2 cells
Assay: SPR measurement of reaction of CTLL2 cells (suspended cells) with IL-2
Assay type: cell-based
Details: IL-2 62.5 ng/ml, 60 μl, 37° C.; for SPR signal (difference between measuring portion and control portion): living CTLL-2 cells immobilized on sensor chip, PBS perfusion 15 μl/min
Description: In the method of the invention, cells are immobilized on a analyzer in the same manner as in the usual SPR measurement for vial cells, to which a stimulus as mentioned above is given to determine the signal as a change of permittivity in a conventional procedure. In this procedure, the invention is characterized in that, in addition to a signal observed during the stimulus on the cells (a primary signal), a secondary signal appearing subsequent to the primary signal is measured as an indication for evaluating the cellular activity responding to the external stimulus.
The method of the invention will be explained in more detail by the following examples, which are not intended to limit the scope of the invention. In the following examples, SPR-CELLIA (Japan Laser Electronic Co.) was used as an SPR analyzer. The sensor chip for amine coupling was prepared as follows.
In 10 μM solution of 4,4-dithiodibutyric acid in ethanol was immersed a sensor chip and stirred for 30 minutes. Thereafter, the chip was washed with dry ethanol and dried. Water-soluble carbodiimide (25 mg) was dissolved in 1 ml of MilliQ water, and 15mg of N-hydroxysuccinimide in 9 ml of 1,4-dioxane, respectively. Both solutions were mixed immediately before the dried sensor chip was immersed therein and the mixture stirred for 10 minutes. Then, there was added 10 ml of MilliQ water, and the mixture was stirred for 5 minutes. The chip was washed with MilliQ water and preserved in MilliQ water.
The suspension (30 μl)of CTLL-2 cells (2×10^5 cells/ml) in PBS were directly placed onto both of sensor chip-measuring portion and control portion, and the chip was blocked with 50 μl of 1% BSA. The sensor chip was equipped in a flow-cell unit of the SPR analyzer, of which the temperature was set at 37° C. and was perfused with PBS at a flow rate of 15 μl/min. IL-2 (62.5 ng/ml, 60 μl) was injected into the measuring portion, while PBS continuously perfused, and the change of the signal was measured. The portion into which no IL-2 was injected was used as a control.

Which results are given for “IL-2: cytokine ligand injected onto CTLL-2 cells”?
periodicity of the characteristic SPR signal (CTLL-2 cells): about 10 minutes; SPR signal (difference between measuring portion and control portion): a characteristic signal appeared

B1: IL-3: agent which does not bind to CTLL-2 cells (protein, UniProt P08700 20-152, looked up)
Interleukin-3: APMTQTTPLKTSWVNCSNMIDEIITHLKQPPLPLLDFNNLNGEDQDILMENNLRRPNLEAFNRAVKSLQNASAIESILKNLLPCLPLATAAPTRHPIHIKDGDWNEFRRKLTFYLKTLENAQAQQTTLSLAIF
With B1 as the molecule, how does the “SPR signal (difference between measuring portion and control portion)” value read?
Its value is “no signal was observed”.
